According to US9650423B2, “Long peptides of 22-45 amino acid residues that induce and/or enhance antigen specific immune responses” (priority 2000, dated 2017):

Test system: AR5 tumor cells (E1A+Ras transformed mouse embryo cells)
Assay: Vaccination and AR5 tumor challenge
Conditions: for protection against tumor challenge: C57/B16 mice, adenovirus E1A+RAS transformed tumor cells; for survival at 50 days after tumor-challenge: n=8, s.c. in IFA day 1, 10 μg epitope or 30 μg 32-mer, 0.5×10^6 AR5 cells 14 days later

**Q.** For “RECNSSTDSCDSGPSNTPPEIHPVVRLCPIKP (RECNSSTDSCDSGPSNTPPEIHPVVRLCPIIKP; minimal CTL epitope of adenovirus E1A protein) [32 amino acid long peptide]”, which “protection against tumor challenge” value is on record?
**A.** Its value is “resulted in protection”.

**Q.** And the “mice lost during the 100 day follow-up” value (n=8, 30 μg s.c. in IFA, AR5 challenge 14 days later)?
**A.** Its value is “only one mouse is lost”.

**Q.** What about the “survival at 50 days after tumor-challenge” value of the same sequence?
**A.** Its value is “all live at 50 days”.

**Q.** How did the “protection against tumor challenge” value turn out when “SGPSNTPPEI (minimal E1A-derived CTL epitope) [reference compound]” was run?
**A.** Its value is “enhanced tumor outgrowth”.

**Q.** What about the “survival at 50 days after tumor-challenge” value of the same sequence?
**A.** The value was “all die within 50 days”.
